Patent US6936628B2, “Oral administration of epothilones” (Bristol-Myers Squibb Company, priority 2002, dated 2005)

How the values were obtained:
[1] = system: Pat-21 paclitaxel resistant breast cancer model; test: In vivo antitumor testing, Pat-21 xenograft; design: species or system nude mice
HCT116/VM46 cells = test: In vitro cytotoxicity assay (MTS), HCT116/VM46; format: cell-based, human; settings: concentration for 50% growth inhibition, HCT116/VM46 versus sensitive HCT116
[2] = system: Pat-7 human ovarian carcinoma; test: In vivo antitumor testing, Pat-7 xenograft
[3] = system: A2780Tax human ovarian carcinoma; test: In vivo antitumor testing, A2780Tax xenograft; design: species or system nude mice

Q: `C/C(=C\c1csc(CN)n1)[C@@H]1C[C@@H]2O[C@]2(C)CCC[C@H](C)[C@H](O)[C@@H](C)C(=O)C(C)(C)[C@@H](O)CC(=O)O1` (relative stereo) [Compound A, [1S-[1R*,3R*(E),7R*,10S*,11R*,12R*,16S*]]-3-[2-[2-(aminomethyl)-4-thiazolyl]-1-methylethenyl]-7,11-dihydroxy-8,8,10,12,16-pentamethyl-4,17-dioxabicyclo[14.1.0]heptadecane-5,9-dione] was tested. Which MTD ([1]; Pat-21, mice, two courses of 3 doses every 4 days) did it give?
A: 9 mg/kg/inj

Q: And the “LCK (gross log cell kill)” value ([1]; Pat-21, nude mice, IV, QD × 3, 37, 66 (two courses), at MTD/optimal dose, ^3 marked values from separate studies)?
A: > 4.1

Q: And the “R/S, or resistance ratio” value (HCT116/VM46 cells)?
A: 12.8 fold

Q: What about the “LCK (cures/total)” value ([2]; Pat-7, Expt. No. 18, PO, QD × 3 (text Q4D×3), 0.25M potassium phosphate pH 8.0, at MTD) of the same compound?
A: 2.4

Q: And the “LCK at dose levels considerably less than the MTD” value ([2]; Pat-7, IV, Q4D×3)?
A: > 1 LCK

Q: What about the optimal dose ([2]; Pat-7, nude mice, IV, Q4D×3) of the same compound?
A: 8 mg/kg/inj

Q: And the MTD ([3]; mice, Q4D×3)?
A: 10 mg/kg/inj

Q: And the “LCK (gross log cell kill)” value ([3]; nude mice, IV, QD × 3 (text Q4D×3), at MTD, ^3 marked values from separate studies)?
A: 3.6
